Binding of CDR-mutated scFvs to a peptide of the spike HR2 region

Source: Engelhart et al. 2022 (doi:10.1038/s41597-022-01779-4), MIT Lincoln Laboratory and A-Alpha Bio; data file from the FLAb repository.

Antigen: PDVDLGDISGINAS, a 14-residue peptide of the SARS-CoV-2 spike HR2 region.

Parent: Ab-14, a human scFv built as VH, three GGGGS repeats, VL. Only the CDRs of the heavy chain vary.
VH: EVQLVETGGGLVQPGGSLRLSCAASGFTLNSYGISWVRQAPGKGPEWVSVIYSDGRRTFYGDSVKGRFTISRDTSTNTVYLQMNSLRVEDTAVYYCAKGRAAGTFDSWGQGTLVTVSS
VL: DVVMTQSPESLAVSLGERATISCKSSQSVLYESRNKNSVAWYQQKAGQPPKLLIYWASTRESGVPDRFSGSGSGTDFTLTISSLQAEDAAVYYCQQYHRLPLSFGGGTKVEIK

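The parent was found by panning a naive human phage display library on the peptide. AAYL49 was designed without a model: most single CDR substitutions and a random sample of double and triple ones. In AlphaSeq, yeast of one mating type display the scFv and yeast of the other type display the target. Mating (16 h, 30 °C) was followed by selection of diploids and sequencing of their barcodes. The ratio of observed to expected reads was calibrated, replicate by replicate, on BCL2-family standards whose Kd was known from biolayer interferometry. The assay was run in three technical replicates.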

Changes read parent residue, position, new residue, counted from the first residue of the VH shown.
Affinities are written as log10 Kd with Kd in nM; a lower number is a better binder.
An entry "nd" has no value in the source: the pair was not observed among the diploids in that replicate. This suggests poor binding but is not conclusive.
For reference, the parent read 0.65 as the reference entry and 4.11 (one replicate of three) as a member of this library.
As a blank, each scFv also met three strains without target: over library AAYL49, 15% of these pairings were detected, typically at 4.06 and seldom below 2.83. The control count says in how many pairings with the empty strains this scFv gave a signal.

For R57C+S63Q, the assay gave nd, nd, nd (controls 1 of 9).
For F27E+L29C+R57Y, the assay gave nd, 4.83, 3.57 (controls 4 of 9).
For G61V+G99N+S107E, the assay gave nd, nd, nd (controls 1 of 9).
For R56A+Y60H+G103N, the assay gave nd, nd, nd (controls 2 of 9).
For S31I+Y32H, the assay gave nd, nd, nd (controls 0 of 9).
For S31A+D54H+R56D, the assay gave nd, 3.20, 6.17 (controls 0 of 9).
For R57K+D62Y+V64C, the assay gave nd, nd, nd (controls 4 of 9).
For G33V+R57T+K65W, the assay gave nd, nd, nd (controls 0 of 9).
For I51K+D54T+V64C, the assay gave nd, nd, 4.93 (controls 0 of 9).
For F27N+T104F+F105C, the assay gave 2.55, 1.32, 2.11 (controls 0 of 9).
For N30Y+V50H, the assay gave nd, nd, nd (controls 0 of 9).
For T28M+R56C+A102Q, the assay gave 2.99, 2.58, 2.53 (controls 4 of 9).
For S31D+S53V+T58R, the assay gave 1.85, 1.71, 1.73 (controls 4 of 9).
For Y32S+G33T+S107A, the assay gave 4.45, 3.59, nd (controls 7 of 9).
For F27V+G61K+T104P, the assay gave nd, nd, nd (controls 1 of 9).
For G33A+Y52C+F105T, the assay gave nd, nd, nd (controls 0 of 9).
For S53Q+G103L, the assay gave 4.65, 2.20, nd (controls 3 of 9).
For R56D+T104V+D106G, the assay gave nd, 3.27, 4.46 (controls 3 of 9).
For S35R+D54N+V64I, the assay gave nd, nd, nd (controls 1 of 9).
For G26W+V50Y+Y52F, the assay gave nd, 3.65, 4.61 (controls 4 of 9).
For D62S+S63G+F105W, the assay gave nd, nd, nd (controls 1 of 9).
For T28S+R56A+K65H, the assay gave 2.81, 3.32, nd (controls 0 of 9).
For T58Q+K65T+S107R, the assay gave nd, nd, nd (controls 0 of 9).
For I34N+G55H+S63D, the assay gave nd, 3.80, nd (controls 5 of 9).
For S35Y+Y52G+S53W, the assay gave 5.33, nd, nd (controls 2 of 9).
For F27D+I34N+G103M, the assay gave nd, nd, nd (controls 2 of 9).
For G26R+G61A, the assay gave 0.76, 1.07, 1.12 (controls 3 of 9).
For G26V+G55F+R57N, the assay gave nd, nd, nd (controls 1 of 9).
For S53L+R57Q+F59E, the assay gave 4.93, 4.09, 5.08 (controls 5 of 9).
For F27S+T28N+R56L, the assay gave 1.85, 2.06, 2.93 (controls 0 of 9).
For S31G+Y52S+S107Y, the assay gave nd, 3.96, 2.95 (controls 1 of 9).
For Y32S+F59A+G99W, the assay gave nd, 3.13, 3.57 (controls 1 of 9).
For G33S+D54R+T104K, the assay gave nd, nd, nd (controls 0 of 9).
For G55L+Y60C+G61D, the assay gave nd, nd, nd (controls 0 of 9).
For T28A+D62R, the assay gave 2.06, 1.75, 1.52 (controls 0 of 9).
For N30S+T58K+A101I, the assay gave nd, nd, nd (controls 2 of 9).
For T28G+S35K+S53V, the assay gave nd, nd, nd (controls 0 of 9).
For V50S+F59C+S107F, the assay gave nd, nd, nd (controls 0 of 9).
For I51G+D62C+A102S, the assay gave nd, nd, nd (controls 1 of 9).
For F27H+N30H+D62Q, the assay gave nd, nd, nd (controls 1 of 9).
For Y52R+T58G+K65R, the assay gave nd, nd, nd (controls 1 of 9).
For S31Y+Y52K+D106W, the assay gave nd, 4.70, nd (controls 2 of 9).
For T58P+Y60N+D62A, the assay gave nd, nd, nd (controls 1 of 9).
For V64C+A102P+F105V, the assay gave 3.94, nd, nd (controls 0 of 9).
For R56Y+F59S+K65F, the assay gave 2.32, 1.93, 2.47 (controls 2 of 9).
For S63C+K65G, the assay gave nd, 3.69, nd (controls 0 of 9).
For F27M+I34N+A102C, the assay gave nd, nd, nd (controls 0 of 9).
For R57H+D62M, the assay gave nd, nd, nd (controls 0 of 9).

The opening 7 entries, copied out:

changes	log10 Kd (nM) by replicate	signal with controls
R57C+S63Q	nd, nd, nd	1/9
F27E+L29C+R57Y	nd, 4.83, 3.57	4/9
G61V+G99N+S107E	nd, nd, nd	1/9
R56A+Y60H+G103N	nd, nd, nd	2/9
S31I+Y32H	nd, nd, nd	0/9
S31A+D54H+R56D	nd, 3.20, 6.17	0/9
R57K+D62Y+V64C	nd, nd, nd	4/9